# Some compounds may have been tested in ways that are not shown here.
# How the values were obtained:
# phospholipase A2 = assay: Phospholipase A2 activity in human PMNs; details: 10 μmol/L
# Mac-1 (CD11b/CD18) = assay: Flowcytometric analysis of Mac-1 expression on PMNs; details: inhibitor 20 minutes, then 100 nmol/L LacCer 20 minutes; BPB 10 μmol/L
substance,measurement,setting,value
bromophenacyl bromide,LacCer induced PL-AZ activity in human PMNs,phospholipase A2,completely abrogated
same,effect on LacCer-stimulated Mac-1 upregulation on PMNs,Mac-1 (CD11b/CD18),completely abrogated
